Measured values taken from PMC8319832, “Fine-Tuning of Alkaline Residues on the Hydrophilic Face Provides a Non-toxic Cationic α-Helical Antimicrobial Peptide Against Antibiotic-Resistant ESKAPE Pathogens” (Frontiers in Microbiology, 2021).

Key:
Assay in all cases: MIC, broth dilution
Settings in all cases: CLSI broth dilution, MHB, 37°C, 20 h, OD630, at least three repeats; standard strain
E. faecalis ATCC 29212 = format: cell-based
Experimental: (§1) All experiments were repeated at least three times.
(§2) To study the influence of physiological ions on the antimicrobial activities of the peptides, The MICs of the peptides were also determined against the standard bacterial strains cultured in MHB containing various salts at their physiological concentrations (150 mM NaCl, 4.5 mM KCl, 1 mM MgCl2, 2 mM CaCl2, 6 μM NH4HCO3, and 4 μM FeCl3) ([Ma et al., 2016]).

S. aureus ATCC 25923 = format: cell-based, Staphylococcus aureus
From the text: as §1

P. aeruginosa ATCC 27853 = format: cell-based, Pseudomonas aeruginosa
Experimental: as §1, §2

CC[C@H](C)[C@H](NC(=O)CN)C(=O)NCC(=O)N[C@@H](C)C(=O)N[C@H](C(=O)N[C@@H](CC(C)C)C(=O)N[C@@H](CCCCN)C(=O)N[C@H](C(=O)N[C@@H](CC(C)C)C(=O)N[C@H](C(=O)N[C@H](C(=O)NCC(=O)N[C@@H](CC(C)C)C(=O)N1CCC[C@H]1C(=O)N[C@@H](C)C(=O)N[C@@H](CC(C)C)C(=O)N[C@H](C(=O)N[C@@H](CO)C(=O)N[C@@H](Cc1c[nH]c2ccccc12)C(=O)N[C@H](C(=O)N[C@@H](CCCCN)C(=O)N[C@@H](CCCNC(=N)N)C(=O)N[C@@H](CCCCN)C(=O)N[C@@H](CCCNC(=N)N)C(=O)N[C@@H](CCC(N)=O)C(=O)N[C@@H](CCC(N)=O)C(N)=O)[C@@H](C)CC)[C@@H](C)CC)[C@@H](C)O)[C@@H](C)O)C(C)C)C(C)C [Melittin]
MIC (E. faecalis ATCC 29212): 2.5 mg/L (≈ 0.878 µM)
MIC (S. aureus ATCC 25923): 5 mg/L (≈ 1.76 µM)
MIC (P. aeruginosa ATCC 27853): 5 mg/L (≈ 1.76 µM)

Values after ≈ are worked out from the molar mass of the structure shown.
